In general, pEC50 refers to the negative decadic logarithm of the EC50, by convention in mol/L.

Sequences of proteins named here, by UniProt entry; tags and fusion partners are left off. Residues count along the entry.
UniProt O60895, 43-175: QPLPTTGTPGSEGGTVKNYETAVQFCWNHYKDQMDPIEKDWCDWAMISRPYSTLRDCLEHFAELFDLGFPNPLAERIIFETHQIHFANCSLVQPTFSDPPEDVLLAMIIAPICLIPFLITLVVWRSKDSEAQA
UniProt Q16602, 23-461: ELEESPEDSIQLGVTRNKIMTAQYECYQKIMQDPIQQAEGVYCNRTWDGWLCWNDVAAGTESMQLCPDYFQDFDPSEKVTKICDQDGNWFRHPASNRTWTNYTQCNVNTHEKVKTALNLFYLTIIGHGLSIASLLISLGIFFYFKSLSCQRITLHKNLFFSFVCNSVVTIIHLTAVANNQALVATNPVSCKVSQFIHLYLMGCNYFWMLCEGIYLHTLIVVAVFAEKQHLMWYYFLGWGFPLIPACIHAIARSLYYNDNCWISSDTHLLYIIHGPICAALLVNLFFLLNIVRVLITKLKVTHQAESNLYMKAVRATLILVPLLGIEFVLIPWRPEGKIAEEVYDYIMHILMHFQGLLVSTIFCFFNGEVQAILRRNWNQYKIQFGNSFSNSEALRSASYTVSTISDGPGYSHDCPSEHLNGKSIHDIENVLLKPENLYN

This is an account of results in article PMC9655119, “Sustained Activation of CLR/RAMP Receptors by Gel-Forming Agonists” (International Journal of Molecular Sciences, 2022).

pEC50: −log10 of the molar value.

For the experiment, the target named is T1, human CLR/RAMP2 (Homo sapiens, UniProt O60895+Q16602).
T1 construct: host or cells: CHO-K1 cells (PathHunter β-Arrestin cell line)
As to the kind of experiment: CLR/RAMP2 receptor-activation assay (PathHunter β-Arrestin). It is filed as cell-based. Here is the method:
The bioactivity of peptide analogs was studied using CLR/RAMP1, CLR/RAMP2, and CLR/RAMP3 assays by DiscoveRx (Fremont, CA, USA) in cells that stably express human CLR/RAMP1 (1321N1 cells), CLR/RAMP2 (CHO-K1 cells), or CLR/RAMP3 (CHO-K1 cells). The dose-dependent stimulatory effect of agonists was studied in duplicate, at 10 different concentrations. Determination of the half-maximal effective concentration (EC50) was performed using a 10-point dose-response curves. The starting concentration was 1.0 μM, and it was serially diluted 3-fold, in DMSO.
In this assay, the CLR was fused in frame with a small enzyme donor fragment ProLink™ (PK). The receptor was co-expressed with a fusion protein of β-arrestin and an N-terminal deletion mutant of β-galactosidase (i.e., enzyme acceptor). Activation of the CLR/RAMP2 receptor stimulated the binding of β-arrestin to the PK-tagged receptor and led to an increase in enzyme activities which can then be measured with the PathHunter detection reagents. PathHunter cell lines were seeded in a total volume of 20 μL into 384-well microplates and incubated at 37 °C prior to the assay. Intermediate dilution of samples was performed to generate 5X samples in the assay buffer. A 5 μL aliquot of 5X sample was added to cells and incubated at 37 °C for 90 min. Vehicle concentration was 1%.

For `CCCCCCCCCCCCCCCC(=O)NCCCC[C@H](NC(=O)COCCOCCN)C(=O)N[C@H](C(=O)N[C@@H](CCCCN)C(=O)N[C@@H](CCCCN)C(=O)N[C@H](C(=O)N[C@@H](CC(C)C)C(=O)N[C@@H](CCCNC(=N)N)C(=O)N[C@H](C(=O)NCC(=O)N[C@H]1CSSC[C@@H](C(=O)N[C@H](C(=O)N[C@H](C(=O)N[C@@H](CCC(N)=O)C(=O)N[C@@H](CCCCN)C(=O)N[C@@H](CC(C)C)C(=O)N[C@@H](C)C(=O)N[C@@H](Cc2c[nH]cn2)C(=O)N[C@@H](CCC(N)=O)C(=O)N[C@H](C(=O)N[C@@H](Cc2ccc(O)cc2)C(=O)N[C@@H](CCC(N)=O)C(=O)N[C@@H](Cc2ccccc2)C(=O)N[C@H](C(=O)N[C@@H](CC(=O)O)C(=O)N[C@@H](CCCCN)C(=O)N[C@@H](CC(=O)O)C(=O)N[C@@H](CCCCN)C(=O)N[C@@H](CC(=O)O)C(=O)N[C@@H](CC(N)=O)C(=O)N[C@H](C(=O)N[C@@H](C)C(=O)N2CCC[C@H]2C(=O)N[C@@H](CCCNC(=N)N)C(=O)N[C@@H](CO)C(=O)N[C@@H](CCCCN)C(=O)N[C@H](C(=O)N[C@@H](CO)C(=O)N2CCC[C@H]2C(=O)N[C@@H](CCC(N)=O)C(=O)NCC(=O)N[C@@H](Cc2ccc(O)cc2)C(N)=O)[C@@H](C)CC)C(C)C)[C@@H](C)O)[C@@H](C)CC)C(C)C)[C@@H](C)O)NC(=O)[C@H]([C@@H](C)O)NC(=O)CNC(=O)[C@H](Cc2ccccc2)NC(=O)[C@H](CCCNC(=N)N)NC1=O)[C@@H](C)O)[C@@H](C)O)[C@@H](C)O` [Analog C-8], the pEC50 is 8.96.
